# Results from patent US11980632B2 (priority 2020, dated 2024).
# Tested on: nitric oxide (NO) production in A549 cells
# Settings: treatment for 3 passages, without viral infection
smiles,measurement,value
C[C@@H]1OC([C@]2(O)[C@H](O[C@@H]3O[C@H](CO)[C@H](O)[C@H](O)[C@H]3O)[C@@H](CO)OC(O)[C@@H]2O)[C@@H](O)[C@H](O)[C@@H]1O (stereo partly shown),effect on the concentration of NO continuously produced by cells,no effect
